How the values were obtained:
L929 cells [1] = conditions: PLA and PP grafted with Gadolinium complex; 48 h incubation; FIG. 10B
L929 cells [2] = conditions: PLA and PP grafted with Gadolinium complex; 24 h, 48 h and 120 h; FIG. 10B
back muscle tissue = conditions: modified meshes vs unmodified meshes, rats, 1 month implantation; FIG. 10C

With “4-Azidoaniline Modified Gd-2-(4,7,10-triacetic acid)-1,4,7,10-tetraazacyclododecan-1-yl)pentanedioic Acid, (Gd-DOTA-N3) Complex” the “cytotoxicity by direct contact (cell viability)” value (L929 cells [1]) was “non-toxic”, the “cell proliferation on the grafted polymer” value (L929 cells [2]) was “non-toxic” and the “intensity of the inflammatory response (lesion intensity i0-i4)” value (back muscle tissue) was “less than or equivalent to those observed with unmodified”. For the same substance, the “spreading of the inflammatory response (lesion spreading d0-d2)” value (back muscle tissue) was “less than or equivalent to those observed with unmodified”.
